Biological target: T1, Aβ1-42 in the presence of AChE (Homo sapiens, UniProt P05067)
T1 construct: was used to dissolve amyloid β1-40 (Sigma A1075); purchased Sigma (Aβ); Merck or Aldrich (AChE) A1075 (Aβ)
Assay: AChE-induced Aβ1-42 aggregation (ThT assay)
Assay type: biochemical
Details: read-out: Inhibition of AChE-induced Aβ1-42 aggregation

Protein sequences, listed by entry. Tags and fused reporters are not part of them. Residues count along the entry.
UniProt P05067, 672-711: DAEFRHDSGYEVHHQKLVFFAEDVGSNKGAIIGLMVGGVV

Question: `COc1cc2c(cc1OC)C(=O)C(CC1CCN(Cc3ccccc3)CC1)C2` (stereo not shown) [Donepezil, donepezil, reference compound] was tested. Which inhibition at 100 µM did it give?
Answer: 78.3 ± 5%

Reference: paper PMC8812461, “Synthesis of New 3-Arylcoumarins Bearing N-Benzyl Triazole Moiety: Dual Lipoxygenase and Butyrylcholinesterase Inhibitors With Anti-Amyloid Aggregation and Neuroprotective Properties Against Alzheimer’s Disease” (Frontiers in Chemistry, 2022)
